# Test results published in patent publication US9464084B2, “P2X7 modulators” (Janssen Pharmaceutica NV, priority 2013, dated 2016).
# Protein sequences, listed by entry. Tags and fused reporters are not part of them. Lines headed by an entry give the natural chain unless they say otherwise; changes in a name come on top.
# UniProt Q64663: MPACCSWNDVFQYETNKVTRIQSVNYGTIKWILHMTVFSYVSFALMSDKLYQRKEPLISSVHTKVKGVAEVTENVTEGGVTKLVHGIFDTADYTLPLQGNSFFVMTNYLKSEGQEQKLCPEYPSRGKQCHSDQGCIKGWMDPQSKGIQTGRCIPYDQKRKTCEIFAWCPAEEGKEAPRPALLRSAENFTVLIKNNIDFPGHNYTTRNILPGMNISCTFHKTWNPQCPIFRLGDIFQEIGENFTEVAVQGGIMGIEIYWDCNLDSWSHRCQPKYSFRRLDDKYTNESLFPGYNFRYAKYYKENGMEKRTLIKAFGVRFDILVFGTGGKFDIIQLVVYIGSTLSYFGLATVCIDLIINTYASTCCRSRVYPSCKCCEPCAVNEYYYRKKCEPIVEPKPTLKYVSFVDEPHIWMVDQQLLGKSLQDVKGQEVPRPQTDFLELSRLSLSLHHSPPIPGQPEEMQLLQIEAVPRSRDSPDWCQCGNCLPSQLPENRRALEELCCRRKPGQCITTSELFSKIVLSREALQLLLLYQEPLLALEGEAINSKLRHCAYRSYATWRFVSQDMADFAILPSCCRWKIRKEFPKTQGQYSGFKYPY
# UniProt Q99572: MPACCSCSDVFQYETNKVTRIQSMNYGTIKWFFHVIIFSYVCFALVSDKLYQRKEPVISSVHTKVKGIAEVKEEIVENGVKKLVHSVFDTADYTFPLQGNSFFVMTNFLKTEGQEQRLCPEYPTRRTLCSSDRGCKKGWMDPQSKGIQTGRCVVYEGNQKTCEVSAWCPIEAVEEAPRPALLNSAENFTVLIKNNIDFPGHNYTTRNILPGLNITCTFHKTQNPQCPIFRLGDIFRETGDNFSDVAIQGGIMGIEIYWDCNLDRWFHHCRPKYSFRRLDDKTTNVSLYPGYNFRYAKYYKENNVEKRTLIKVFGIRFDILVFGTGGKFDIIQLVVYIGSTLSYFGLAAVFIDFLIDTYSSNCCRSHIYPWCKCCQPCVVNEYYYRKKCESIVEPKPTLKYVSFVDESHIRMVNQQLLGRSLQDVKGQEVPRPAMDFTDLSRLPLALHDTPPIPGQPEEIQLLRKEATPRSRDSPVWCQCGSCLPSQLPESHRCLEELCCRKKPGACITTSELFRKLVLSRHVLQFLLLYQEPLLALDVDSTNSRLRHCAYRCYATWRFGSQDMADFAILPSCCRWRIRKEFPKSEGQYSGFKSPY
# Target: rat P2X7 (Rattus norvegicus (Rat), UniProt Q64663)
# Test: Ca2+ flux (FLIPR) in 1321N1 cells expressing recombinant rat P2X7 channel;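 further: Calcium-4 dye fluorescence change read 180 s after agonist addition, following 30 min cell preincubation with test compound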
# Format: cell-based
# Conditions: 250 μM BzATP
row,Structure (SMILES),IC50 [µM]
1,"C[C@@H]1c2nnn(-c3ccccn3)c2CCN1C(=O)c1ccc(F)c(Cl)c1Cl (single isomer, unassigned) [Example 141, (R*)-(2,3-Dichloro-4-fluorophenyl)(4-methyl-1-(pyridin-2-yl)-6,7-dihydro-1H-[1,2,3]triazolo[4,5-c]pyridin-5(4H)-yl)methanone]",> 10
2,"Cc1c(C(=O)N2CCc3c(nnn3-c3ncccn3)[C@H]2C)cccc1C(F)(F)F (single isomer, unassigned) [Example 188, (R*)-(4-methyl-1-(pyrimidin-2-yl)-6,7-dihydro-1H-[1,2,3]triazolo[4,5-c]pyridin-5(4H)-yl)(2-methyl-3-(trifluoromethyl)phenyl)methanone]",0.0085
3,"Cn1nc2c(c1-c1cccnc1)CCN(C(=O)c1cccc(C(F)(F)F)c1Cl)C2 [Example 107, 6-{[2-Chloro-3-(trifluoromethyl)phenyl]carbonyl}-2-methyl-3-pyridin-3-yl-4,5,6,7-tetrahydro-2H-pyrazolo[3,4-c]pyridine]",0.794
4,"Cn1nc2c(c1-c1cccnc1)CCN(C(=O)c1cccc(Cl)c1Cl)C2 [Example 111, 6-[(2,3-Dichlorophenyl)carbonyl]-2-methyl-3-pyridin-3-yl-4,5,6,7-tetrahydro-2H-pyrazolo[3,4-c]pyridine]",1.58
5,"CC1Cc2c(nnn2-c2cc(F)ccn2)CN1C(=O)c1cccc(C(F)(F)F)c1Cl (centres unmarked) [Example 176, (2-Chloro-3-(trifluoromethyl)phenyl)(1-(4-fluoropyridin-2-yl)-6-methyl-6,7-dihydro-1H-[1,2,3]triazolo[4,5-c]pyridin-5(4H)-yl)methanone]",0.0072
6,"CC1Cc2c(nnn2-c2cc[nH]n2)CN1C(=O)c1cccc(C(F)(F)F)c1Cl (centres unmarked) [Example 210, (2-chloro-3-(trifluoromethyl)phenyl)(6-methyl-1-(1H-pyrazol-3-yl)-6,7-dihydro-1H-[1,2,3]triazolo[4,5-c]pyridin-5(4H)-yl)methanone]",0.0077
7,"CC1Cc2c(nnn2-c2ncc(F)cn2)CN1C(=O)c1ccc(F)c(Cl)c1Cl (centres unmarked) [Example 213, 5-[(2,3-Dichloro-4-fluorophenyl)carbonyl]-1-(5-fluoropyrimidin-2-yl)-6-methyl-4,5,6,7-tetrahydro-1H-[1,2,3]triazolo[4,5-c]pyridine]",0.0106
8,"O=C(c1ccc(Cl)cc1Cl)N1CCc2c(nnn2-c2ncccn2)C1 [Example 257, (2,4-dichlorophenyl)(1-(pyrimidin-2-yl)-6,7-dihydro-1H-[1,2,3]triazolo[4,5-c]pyridin-5(4H)-yl)methanone]",6.17
9,"Cc1c(C(=O)N2CCc3c(nnn3-c3ncccn3)C2C)cccc1C(F)(F)F (centres unmarked) [Example 282, (4-methyl-1-(pyrimidin-2-yl)-6,7-dihydro-1H-[1,2,3]triazolo[4,5-c]pyridin-5(4H)-yl)(2-methyl-3-(trifluoromethyl)phenyl)methanone]",0.0191
10,"C[C@@H]1Cc2c(nnn2-c2ccc(F)cc2)[C@H](C)N1C(=O)c1cccc(C(F)(F)F)c1Cl [Example 286, (2-chloro-3-(trifluoromethyl)phenyl)((4S,6R)-1-(4-fluorophenyl)-4,6-dimethyl-6,7-dihydro-1H-[1,2,3]triazolo[4,5-c]pyridin-5(4H)-yl)methanone]",0.144

# Continued, values first:
row,IC50 [µM],Structure (SMILES)
1,> 10,"C[C@H]1c2ncn(-c3ncc(F)cn3)c2CCN1C(=O)c1cccc(C(F)(F)F)c1Cl (single isomer, unassigned) [Example 194, (S*)-(2-Chloro-3-(trifluoromethyl)phenyl)(1-(5-fluoropyrimidin-2-yl)-4-methyl-6,7-dihydro-1H-imidazo[4,5-c]pyridin-5(4H)-yl)methanone]"
2,0.156,"CC1c2ncn(-c3ccccn3)c2CCN1C(=O)c1cccc(C(F)(F)F)c1Cl (centres unmarked) [Example 17, (2-Chloro-3-(trifluoromethyl)phenyl)(4-methyl-1-(pyridin-2-yl)-6,7-dihydro-1H-imidazo[4,5-c]pyridin-5(4H)-yl)methanone]"
3,0.916,"CC1c2ncn(-c3ccc(F)cc3)c2CCN1C(=O)c1cccc(C(F)(F)F)c1Cl (centres unmarked) [Example 18, (2-Chloro-3-(trifluoromethyl)phenyl)(1-(4-fluorophenyl)-4-methyl-6,7-dihydro-1H-imidazo[4,5-c]pyridin-5(4H)-yl)methanone]"
4,0.127,"O=C(c1cccc(C(F)(F)F)c1Cl)N1CCc2c(nc(C(F)(F)F)n2-c2ccccc2)C1 [Example 38, (2-Chloro-3-(trifluoromethyl)phenyl)(1-phenyl-2-(trifluoromethyl)-6,7-dihydro-1H-imidazo[4,5-c]pyridin-5(4H)-yl)methanone]"

# Target: T1, P2X7 (Homo sapiens (Human), UniProt Q99572)
# Test: Radioligand binding, tritiated A-804598, human P2X7-1321N1 cell membranes;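 further: ki obtained from the binding IC50 after correction for tracer concentration and tracer affinity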
# Conditions: 1 hour at 4° C.
row,Structure (SMILES),Ki [µM]
1,"CC1c2ncn(-c3cnccn3)c2C=CN1C(=O)c1cccc(C(F)(F)F)c1Cl (centres unmarked) [Example 56, 5-{[2-Chloro-3-(trifluoromethyl)phenyl]carbonyl}-4-methyl-1-pyrazin-2-yl-4,5-dihydro-1H-imidazo[4,5-c]pyridine]",0.0794
2,"Cn1nc(-c2ccc(F)cc2)c2c1CN(C(=O)c1cccc(C(F)(F)F)c1Cl)CC2 [Example 106, 6-{[2-Chloro-3-(trifluoromethyl)phenyl]carbonyl}-3-(4-fluorophenyl)-1-methyl-4,5,6,7-tetrahydro-1H-pyrazolo[3,4-c]pyridine]",0.251
3,"O=C(c1cccc(Cl)c1Cl)N1CCc2c(-c3ccc(F)cc3)n[nH]c2C1 [Example 114, 6-[(2,3-Dichlorophenyl)carbonyl]-3-(4-fluorophenyl)-4,5,6,7-tetrahydro-2H-pyrazolo[3,4-c]pyridine]",0.251
4,"CC1c2nnn(-c3cncnc3)c2CCN1C(=O)c1cccc(C(F)(F)F)c1Cl (centres unmarked) [Example 177, (2-Chloro-3-(trifluoromethyl)phenyl)(4-methyl-1-(pyrimidin-5-yl)-6,7-dihydro-1H-[1,2,3]triazolo[4,5-c]pyridin-5(4H)-yl)methanone]",0.0794
5,"CC1CN(C(=O)c2cccc(C(F)(F)F)c2Cl)C(C)c2nnn(-c3ccc(F)cc3)c21 (centres unmarked) [Example 238, (2-Chloro-3-(trifluoromethyl)phenyl)(1-(4-fluorophenyl)-4,7-dimethyl-6,7-dihydro-1H-[1,2,3]triazolo[4,5-c]pyridin-5(4H)-yl)methanone]",0.0794

# The remaining lines, values ahead:
row,Ki [µM],Structure (SMILES)
1,0.316,"C[C@H]1c2ncn(-c3ccc(F)cc3)c2CCN1C(=O)c1cccc(C(F)(F)F)c1Cl (single isomer, unassigned) [Example 47]"
2,0.0794,"CC1C=CN=C(n2nnc3c2CCN(C(=O)c2cccc(C(F)(F)F)c2Cl)[C@@H]3C)N1 (single isomer, unassigned) [Example 234, (4R*)-(2-Chloro-3-(trifluoromethyl)phenyl)((4R)-4-methyl-1-(6-methyl-1,6-dihydropyrimidin-2-yl)-6,7-dihydro-1H-[1,2,3]triazolo[4,5-c]pyridin-5(4H)-yl)methanone]"
3,0.251,"CC(C)C1c2ncn(-c3cnccn3)c2CCN1C(=O)c1cccc(C(F)(F)F)c1Cl (centres unmarked) [Example 16, (2-Chloro-3-(trifluoromethyl)phenyl)(4-isopropyl-1-(pyrazin-2-yl)-6,7-dihydro-1H-imidazo[4,5-c]pyridin-5(4H)-yl)methanone]"
4,0.0794,"CCOC(=O)C1c2ncn(-c3cnccn3)c2CCN1C(=O)c1cccc(C(F)(F)F)c1Cl (centres unmarked) [Example 28, Ethyl 5-{[2-chloro-3-(trifluoromethyl)phenyl]carbonyl}-1-pyrazin-2-yl-4,5,6,7-tetrahydro-1H-imidazo[4,5-c]pyridine-4-carboxylate]"
5,0.398,"O=C(c1cccc(C(F)(F)F)c1Cl)N1CCc2c(ncn2-c2ccccc2)C1CO (centres unmarked) [Example 30, (5-{[2-Chloro-3-(trifluoromethyl)phenyl]carbonyl}-1-phenyl-4,5,6,7-tetrahydro-1H-imidazo[4,5-c]pyridin-4-yl)methanol]"
6,0.0794,"Cc1nc2c(n1-c1ccccc1)CCN(C(=O)c1cccc(C(F)(F)F)c1Cl)C2 [Example 37, (2-Chloro-3-(trifluoromethyl)phenyl)(2-methyl-1-phenyl-6,7-dihydro-1H-imidazo[4,5-c]pyridin-5(4H)-yl)methanone]"
7,0.251,"O=C(c1cccc(C(F)(F)F)c1Cl)N1CCc2c(nc(C(F)(F)F)n2-c2ccccc2)C1 [Example 38, (2-Chloro-3-(trifluoromethyl)phenyl)(1-phenyl-2-(trifluoromethyl)-6,7-dihydro-1H-imidazo[4,5-c]pyridin-5(4H)-yl)methanone]"
8,0.741,"CC1(C)c2ncn(-c3ccccc3)c2CCN1C(=O)c1cccc(C(F)(F)F)c1Cl [Example 53, 5-{[2-Chloro-3-(trifluoromethyl)phenyl]carbonyl}-4,4-dimethyl-1-phenyl-4,5,6,7-tetrahydro-1H-imidazo[4,5-c]pyridine]"
9,0.251,"CC1c2nnn(-c3ccc(F)cn3)c2CCN1C(=O)c1cccc(C(F)(F)F)c1Cl (centres unmarked) [Example 71, 5-{[2-Chloro-3-(trifluoromethyl)phenyl]carbonyl}-1-(5-fluoropyridin-2-yl)-4-methyl-4,5,6,7-tetrahydro-1H-[1,2,3]triazolo[4,5-c]pyridine]"
10,0.251,"COc1ccccc1-n1nnc2c1CCN(C(=O)c1cccc(C(F)(F)F)c1Cl)C2 [Example 125, (2-Chloro-3-(trifluoromethyl)phenyl)(1-(2-methoxyphenyl)-6,7-dihydro-1H-[1,2,3]triazolo[4,5-c]pyridin-5(4H)-yl)methanone]"

# Target: T1, P2X7
# Test: Ca2+ flux (FLIPR) in 1321N1 cells expressing recombinant human P2X7 channel;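 further: Calcium-4 dye-loaded cells exposed to compound for 30 min before agonist addition, fluorescence change read 180 s after agonist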
# Format: cell-based
# Conditions: 250 μM BzATP
row,IC50 [µM],Structure (SMILES)
1,0.0124,"C[C@H]1Cc2c(nnn2-c2ncc(F)cn2)CN1C(=O)c1ccc(Cl)c(F)c1Cl (single isomer, unassigned) [Example 218, (6S*)-5-[(2,4-Dichloro-3-fluorophenyl)carbonyl]-1-(5-fluoropyrimidin-2-yl)-6-methyl-4,5,6,7-tetrahydro-1H-[1,2,3]triazolo[4,5-c]pyridine]"
2,> 10,"CCOc1cccnc1-n1nnc2c1CCN(C(=O)c1cccc(C(F)(F)F)c1Cl)[C@H]2C (single isomer, unassigned) [Example 317, (S*)-(2-chloro-3-(trifluoromethyl)phenyl)(1-(3-ethoxypyridin-2-yl)-4-methyl-6,7-dihydro-1H-[1,2,3]triazolo[4,5-c]pyridin-5(4H)-yl)methanone]"
3,0.18,"CCOC(=O)C1c2ncn(-c3ccccc3)c2CCN1C(=O)c1cccc(Cl)c1Cl (centres unmarked) [Example 27, Ethyl 5-(2,3-dichlorobenzoyl)-1-phenyl-4,5,6,7-tetrahydro-1H-imidazo[4,5-c]pyridine-4-carboxylate]"
